Data published in ChEMBL document CHEMBL6121018, “Targeting JNK3 for Alzheimer's disease: Design and synthesis of novel inhibitors with aryl group diversity utilizing wide pocket” (Eur J Med Chem, 2025).

Amino acid sequences for entries named in this document (tags omitted). A change or cut given only in a name is not applied to a line headed by its entry.
UniProt P49840: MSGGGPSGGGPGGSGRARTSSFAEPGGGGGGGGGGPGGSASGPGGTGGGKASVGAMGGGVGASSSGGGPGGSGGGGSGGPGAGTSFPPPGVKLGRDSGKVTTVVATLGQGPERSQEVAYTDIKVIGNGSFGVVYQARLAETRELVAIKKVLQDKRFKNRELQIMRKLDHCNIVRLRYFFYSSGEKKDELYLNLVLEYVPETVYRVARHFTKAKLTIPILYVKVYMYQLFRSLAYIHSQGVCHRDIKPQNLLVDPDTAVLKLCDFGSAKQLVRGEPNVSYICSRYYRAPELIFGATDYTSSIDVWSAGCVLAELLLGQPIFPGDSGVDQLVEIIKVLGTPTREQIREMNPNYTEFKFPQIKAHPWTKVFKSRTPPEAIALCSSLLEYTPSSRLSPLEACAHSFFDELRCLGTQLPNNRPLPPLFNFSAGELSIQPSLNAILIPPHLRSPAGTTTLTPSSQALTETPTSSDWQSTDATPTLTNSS
UniProt P49841: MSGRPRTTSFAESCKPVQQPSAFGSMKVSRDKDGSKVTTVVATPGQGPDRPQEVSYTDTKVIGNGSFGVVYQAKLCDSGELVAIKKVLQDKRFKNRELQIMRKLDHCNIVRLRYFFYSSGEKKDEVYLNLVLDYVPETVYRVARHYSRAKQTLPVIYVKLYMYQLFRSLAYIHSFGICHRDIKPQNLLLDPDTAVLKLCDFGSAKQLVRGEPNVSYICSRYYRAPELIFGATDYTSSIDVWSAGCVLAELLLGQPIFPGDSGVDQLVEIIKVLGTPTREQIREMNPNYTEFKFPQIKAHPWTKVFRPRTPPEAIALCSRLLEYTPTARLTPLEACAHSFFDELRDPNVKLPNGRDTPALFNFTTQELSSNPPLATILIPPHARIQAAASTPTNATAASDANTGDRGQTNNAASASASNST
UniProt P45983: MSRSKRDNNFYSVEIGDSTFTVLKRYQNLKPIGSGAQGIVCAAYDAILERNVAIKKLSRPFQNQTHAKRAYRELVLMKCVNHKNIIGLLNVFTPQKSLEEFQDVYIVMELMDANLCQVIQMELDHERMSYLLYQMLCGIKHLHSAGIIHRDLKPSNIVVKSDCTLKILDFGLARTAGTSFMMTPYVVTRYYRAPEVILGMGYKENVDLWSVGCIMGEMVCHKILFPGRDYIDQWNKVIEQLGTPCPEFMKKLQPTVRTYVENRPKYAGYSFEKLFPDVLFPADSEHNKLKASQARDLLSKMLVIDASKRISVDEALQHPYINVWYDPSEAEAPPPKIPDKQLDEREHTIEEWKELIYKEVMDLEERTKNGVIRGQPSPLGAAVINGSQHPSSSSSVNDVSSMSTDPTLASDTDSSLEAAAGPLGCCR
UniProt Q16539, whole entry: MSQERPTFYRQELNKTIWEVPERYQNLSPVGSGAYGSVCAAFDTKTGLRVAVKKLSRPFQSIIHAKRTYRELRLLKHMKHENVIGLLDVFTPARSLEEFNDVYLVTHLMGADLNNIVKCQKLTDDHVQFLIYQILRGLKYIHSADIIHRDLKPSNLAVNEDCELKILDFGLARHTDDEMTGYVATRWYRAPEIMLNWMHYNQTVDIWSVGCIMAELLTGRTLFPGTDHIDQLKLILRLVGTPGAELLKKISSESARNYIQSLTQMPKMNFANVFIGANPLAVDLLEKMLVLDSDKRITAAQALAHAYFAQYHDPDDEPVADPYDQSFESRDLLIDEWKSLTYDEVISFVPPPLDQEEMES

Columns and labels:
Conditions in all cases: dose 100.0 nM, time 2.0 hrs
[1] = biological target: Glycogen synthase kinase-3 alpha (Homo sapiens, UniProt P49840)
[2] = biological target: Glycogen synthase kinase-3 beta (Homo sapiens, UniProt P49841)
[3] = biological target: Mitogen-activated protein kinase 8 (Homo sapiens, UniProt P45983)
[4] = biological target: Mitogen-activated protein kinase 9 (Homo sapiens, UniProt P45984)
[5] = biological target: Mitogen-activated protein kinase 14 (Homo sapiens, UniProt Q16539)

Structure (SMILES): NC(=O)c1nn(-c2ccnc(N[C@H]3CCCN(C(=O)C4CC4)C3)n2)cc1/C=C/c1ccccc1
- inhibition [1]: 70.5%
- inhibition [2]: 91.5%
- inhibition [3]: 50%
- inhibition [4]: 30%
- inhibition [5]: 0.7%
